Drawing on ChEMBL document CHEMBL2010698 (J Med Chem, 2012), this text covers Activity for one compound.

This test relates to Mus musculus. Nature of the test: Antialzheimer activity in transgenic mouse harboring K670M/N671L, PS1M146V and tauP301L mutants assessed as reduction in hippocampal Abeta(1-40) levels at 0.12 umol/kg, ip for 21 days by ELISA. The arrangement: scale not given: the % may be the effect or the level left. The settings on record: Hippocampus.

Turning to `CCC1=C[C@@H]2Cc3nc4cc(Cl)ccc4c(N)c3[C@H](C1)C2.Cl`, the Activity turned out to be 40%.
